Reference: ChEMBL document CHEMBL5120744, “Dual acting oximes designed for therapeutic decontamination of reactive organophosphates via catalytic inactivation and acetylcholinesterase reactivation” (2021)

Amino acid sequences for entries named in this document (tags omitted). A change or cut given only in a name is not applied to a line headed by its entry.
UniProt P22303: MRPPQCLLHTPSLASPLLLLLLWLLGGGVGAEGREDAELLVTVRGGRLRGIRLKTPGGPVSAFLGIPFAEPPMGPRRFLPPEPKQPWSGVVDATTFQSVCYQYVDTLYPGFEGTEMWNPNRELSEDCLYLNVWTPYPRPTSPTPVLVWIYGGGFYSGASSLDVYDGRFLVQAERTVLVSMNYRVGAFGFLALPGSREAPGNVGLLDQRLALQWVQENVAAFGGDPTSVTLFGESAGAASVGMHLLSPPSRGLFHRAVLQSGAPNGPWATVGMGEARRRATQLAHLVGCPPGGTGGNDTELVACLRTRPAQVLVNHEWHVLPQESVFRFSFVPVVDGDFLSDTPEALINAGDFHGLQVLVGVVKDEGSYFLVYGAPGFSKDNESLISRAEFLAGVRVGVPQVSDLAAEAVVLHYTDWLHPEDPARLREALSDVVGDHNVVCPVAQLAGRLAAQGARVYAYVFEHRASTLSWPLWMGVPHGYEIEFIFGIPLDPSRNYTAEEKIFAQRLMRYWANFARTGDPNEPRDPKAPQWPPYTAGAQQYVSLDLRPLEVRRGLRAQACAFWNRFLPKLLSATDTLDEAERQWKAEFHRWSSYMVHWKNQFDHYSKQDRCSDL
UniProt O42275: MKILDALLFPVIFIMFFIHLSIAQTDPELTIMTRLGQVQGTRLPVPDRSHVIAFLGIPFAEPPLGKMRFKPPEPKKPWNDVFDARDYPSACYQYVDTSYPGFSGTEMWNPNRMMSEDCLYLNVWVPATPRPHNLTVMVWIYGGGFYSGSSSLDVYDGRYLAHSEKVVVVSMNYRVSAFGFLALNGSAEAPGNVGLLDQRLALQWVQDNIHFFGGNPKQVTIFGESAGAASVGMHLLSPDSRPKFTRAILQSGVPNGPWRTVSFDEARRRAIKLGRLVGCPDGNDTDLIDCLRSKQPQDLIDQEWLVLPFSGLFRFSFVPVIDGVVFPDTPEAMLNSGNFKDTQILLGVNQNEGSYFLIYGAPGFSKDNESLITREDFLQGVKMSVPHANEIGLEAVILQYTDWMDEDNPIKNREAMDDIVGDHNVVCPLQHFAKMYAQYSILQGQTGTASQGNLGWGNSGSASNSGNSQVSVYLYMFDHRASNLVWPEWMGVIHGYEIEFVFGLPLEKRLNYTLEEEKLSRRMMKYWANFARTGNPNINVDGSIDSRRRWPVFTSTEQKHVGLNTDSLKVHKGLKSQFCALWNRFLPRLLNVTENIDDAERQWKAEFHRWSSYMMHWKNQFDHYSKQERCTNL

What was measured:
[1] = molecular target: Acetylcholinesterase (Homo sapiens) (UniProt P22303); test: Reactivation of POX-inhibited human recombinant AChE assessed as reactivation rate constant using ATC as substrate at pH 10.5 and 37 degreeC followed by substrate addition by Ellman's method based spectrophotometry; details: filed as activator
[2] = molecular target: Acetylcholinesterase (Homo sapiens) (UniProt P22303); test: Reactivation of POX-inhibited human recombinant AChE assessed as reactivation rate constant using ATC as substrate at pH 10.5 and 17 degreeC followed by substrate addition by Ellman's method based spectrophotometry; details: filed as activator
[3] = molecular target: Acetylcholinesterase (Homo sapiens) (UniProt P22303); test: Reactivation of CPS-inhibited human recombinant AChE assessed as reactivation rate constant using ATC as substrate at 1 mM followed by substrate addition by Ellman's method based spectrophotometry; parameters: scale not given: the % may be the effect or the level left
[4] = molecular target: Acetylcholinesterase (Electrophorus electricus) (UniProt O42275); test: Reactivation of POX-inhibited electric eel recombinant AChE assessed as reactivation rate constant using ATC as substrate at 1 mM followed by substrate addition by Ellman's method based spectrophotometry; parameters: scale not given: the % may be the effect or the level left; details: filed as activator
[5] = molecular target: Acetylcholinesterase (Electrophorus electricus) (UniProt O42275); test: Reactivation of POX-inhibited electric eel recombinant AChE assessed as reactivation rate constant using ATC as substrate at 0.1 mM followed by substrate addition by Ellman's method based spectrophotometry; parameters: scale not given: the % may be the effect or the level left
[6] = molecular target: Acetylcholinesterase (Homo sapiens) (UniProt P22303); test: Reactivation of CPS-inhibited human recombinant AChE assessed as reactivation rate constant using ATC as substrate at less than 0.1 mM followed by substrate addition by Ellman's method based spectrophotometry; parameters: scale not given: the % may be the effect or the level left
[7] = molecular target: Acetylcholinesterase (Electrophorus electricus) (UniProt O42275); test: Reactivation of CPS-inhibited electric eel recombinant AChE assessed as reactivation rate constant using ATC as substrate at 0.1 to 1 mM followed by substrate addition by Ellman's method based spectrophotometry; details: filed as activator, dose 0.1-1 mM
[8] = molecular target: Acetylcholinesterase (Electrophorus electricus) (UniProt O42275); test: Reactivation of MAL-inhibited electric eel recombinant AChE assessed as reactivation rate constant using ATC as substrate at 0.1 to 1 mM followed by substrate addition by Ellman's method based spectrophotometry; details: filed as activator, dose 0.1-1 mM
[9] = molecular target: Acetylcholinesterase (Homo sapiens) (UniProt P22303); test: Reactivation of POX-inhibited human recombinant AChE assessed as reactivation rate constant using ATC as substrate at pH 8 and 37 degreeC followed by substrate addition by Ellman's method based spectrophotometry; details: filed as activator
[10] = molecular target: Acetylcholinesterase (Homo sapiens) (UniProt P22303); test: Reactivation of POX-inhibited human recombinant AChE assessed as reactivation rate constant using ATC as substrate at pH 8 and 17 degreeC followed by substrate addition by Ellman's method based spectrophotometry; details: filed as activator
Zone of skin [11] = test: Increase in POX decontamination in porcine skin assessed as decrease POX half life by LC-MS analysis; details: Sus scrofa; Skin of body
Zone of skin [12] = test: Increase in POX decontamination in porcine skin assessed as decrease POX skin penetration by LC-MS analysis; details: Sus scrofa; Skin of body
[13] = molecular target: Acetylcholinesterase (Electrophorus electricus) (UniProt O42275); test: Reactivation of POX-inhibited electric eel recombinant AChE assessed as reactivation rate constant using ATC as substrate followed by substrate addition by Ellman's method based spectrophotometry; details: filed as activator
[14] = molecular target: Acetylcholinesterase (Homo sapiens) (UniProt P22303); test: Reactivation of POX-inhibited human recombinant AChE assessed as reactivation rate constant using ATC as substrate at 1 mM followed by substrate addition by Ellman's method based spectrophotometry; parameters: scale not given: the % may be the effect or the level left; details: filed as activator
[15] = molecular target: Acetylcholinesterase (Homo sapiens) (UniProt P22303); test: Reactivation of POX-inhibited human recombinant AChE assessed as reactivation rate constant using ATC as substrate at 0.5 mM followed by substrate addition by Ellman's method based spectrophotometry; details: filed as activator
[16] = molecular target: Acetylcholinesterase (Homo sapiens) (UniProt P22303); test: Effect on human recombinant AChE assessed as increase in enzyme activity using ATC as substrate at 0.1 to 1 mM followed by substrate addition by Ellman's method based spectrophotometry; details: dose 0.1-1 mM
[17] = molecular target: Acetylcholinesterase (Homo sapiens) (UniProt P22303); test: Effect on human recombinant AChE assessed as decrease in enzyme activity using ATC as substrate at 1 mM followed by substrate addition by Ellman's method based spectrophotometry; details: filed as activator

Compound	Activity [1]	Activity [2]	Activity [3]	Activity [4]	Activity [5]	Activity [6]	Activity [7]	Activity [8]	Activity [9]	Activity [10]	Activity (Zone of skin [11])	Activity (Zone of skin [12])	Activity [13]	Activity [14]	Activity [15]	Activity [16]	inhibition [17]
CC(=O)/C(C)=N/O	Active	Active	–	–	–	–	–	–	–	–	–	–	–	–	–	–	–
C[N+](C)(C)CCNC(=O)/C=N/O	–	–	14%	80%	21%	2%	Active	Active	Active	Active	–	–	–	–	–	–	–
O=C(/C=N/O)NCCN1CCCC1	Active	Active	14%	80%	21%	2%	Active	Active	–	–	Active	Active	Dde	66%	Active	–	–
CCN(CC)CCNC(=O)/C=N/O	Active	Active	14%	80%	21%	2%	Active	Active	Active	Active	Active	Active	Dde	66%	–	–	–
CN(C)CCCNC(=O)/C=N/O	Active	Active	14%	80%	21%	2%	Active	Active	–	–	Active	Active	–	66%	–	–	–
NCCNC(=O)/C=N/O	–	–	14%	80%	–	2%	Active	Active	–	–	–	–	–	–	–	25%	–
C[n+]1ccccc1C=NO	–	–	–	–	–	–	–	–	–	–	–	–	–	–	–	–	67%
O=C(/C=N/O)NCc1ncc[nH]1	Active	Active	14%	80%	21%	2%	Active	Active	–	–	–	–	–	–	–	–	–
CN(C)CCNC(=O)/C=N/O	–	–	14%	80%	–	2%	Active	Active	–	–	–	–	–	–	–	–	–

Active and inactive are the calls of the source. The calls are words filed in the database; no cut-off is given here.
